The values that follow come from ChEMBL document CHEMBL2429742, “Design, synthesis, and biological evaluation of novel 3-pyrrolo[b]cyclohexylene-2-dihydroindolinone derivatives as potent receptor tyrosine kinase inhibitors” (Bioorg Med Chem Lett, 2013).

Usually IC50 stands for the midpoint of a concentration-inhibition curve. Low values mean inhibition by little substance, high ones a need for much substance.

Experiment [1] deals with BXPC-3. The experiment is described as follows: cells. Particulars: Homo sapiens, BXPC-3, 72 h.
The test system of experiment [2] is HT-29. The experiment is described as follows: cells. The note with it: Homo sapiens, HT-29, 72 h.

On to `CCN(CC)CCNC(=O)c1c(C)[nH]c2c1CCC/C2=C1/C(=O)Nc2ccc(C)cc21`, for which the IC50 is 2430 nM in experiment [1] and 1730 nM in experiment [2].
